Test results from PubChem BioAssay (NCATS).
The entries are a selection whose mix differs from that of the whole data set. Results filed as inconclusive are left out. Active and inactive are the calls of the source. Unless noted, calls come from the whole dose curve; as a rule, active = well fitted curve in the direction sought with a large enough effect; inconclusive = small, poorly fitted or top-dose-only effect, or another doubt; inactive = no such curve, though single readings can be large; an effect the other way counts as inactive or inconclusive.

Protein sequences, listed by entry. Tags and fused reporters are not part of them.
UniProt P10635, whole entry, looked up: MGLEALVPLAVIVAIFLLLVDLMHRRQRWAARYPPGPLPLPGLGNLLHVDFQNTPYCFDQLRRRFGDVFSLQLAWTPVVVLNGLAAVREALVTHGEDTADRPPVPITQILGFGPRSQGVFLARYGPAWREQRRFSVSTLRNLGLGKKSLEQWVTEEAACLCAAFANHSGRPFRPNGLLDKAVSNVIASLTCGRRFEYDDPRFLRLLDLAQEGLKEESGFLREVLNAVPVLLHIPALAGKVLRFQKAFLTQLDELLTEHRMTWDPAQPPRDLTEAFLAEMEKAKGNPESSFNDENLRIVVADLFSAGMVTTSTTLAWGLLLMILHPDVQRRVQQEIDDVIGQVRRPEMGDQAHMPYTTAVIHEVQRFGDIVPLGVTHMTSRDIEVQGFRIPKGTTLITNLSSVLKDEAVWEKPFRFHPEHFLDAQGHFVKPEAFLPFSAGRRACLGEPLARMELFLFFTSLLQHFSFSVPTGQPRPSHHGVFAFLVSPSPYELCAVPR
UniProt P08684, whole entry, looked up: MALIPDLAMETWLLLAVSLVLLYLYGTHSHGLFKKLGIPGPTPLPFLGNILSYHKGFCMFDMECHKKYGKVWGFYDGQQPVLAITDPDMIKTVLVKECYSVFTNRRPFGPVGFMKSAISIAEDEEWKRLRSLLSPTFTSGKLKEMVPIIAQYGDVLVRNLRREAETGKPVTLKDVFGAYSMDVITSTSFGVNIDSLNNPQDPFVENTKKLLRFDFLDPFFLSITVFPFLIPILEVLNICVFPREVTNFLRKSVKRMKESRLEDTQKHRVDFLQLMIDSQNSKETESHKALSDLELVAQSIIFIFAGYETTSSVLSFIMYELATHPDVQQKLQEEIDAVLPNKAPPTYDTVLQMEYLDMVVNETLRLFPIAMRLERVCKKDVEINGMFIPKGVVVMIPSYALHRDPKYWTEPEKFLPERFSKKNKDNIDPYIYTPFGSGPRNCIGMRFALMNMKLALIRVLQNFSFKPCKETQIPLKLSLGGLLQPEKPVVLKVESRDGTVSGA
UniProt P11712, whole entry, looked up: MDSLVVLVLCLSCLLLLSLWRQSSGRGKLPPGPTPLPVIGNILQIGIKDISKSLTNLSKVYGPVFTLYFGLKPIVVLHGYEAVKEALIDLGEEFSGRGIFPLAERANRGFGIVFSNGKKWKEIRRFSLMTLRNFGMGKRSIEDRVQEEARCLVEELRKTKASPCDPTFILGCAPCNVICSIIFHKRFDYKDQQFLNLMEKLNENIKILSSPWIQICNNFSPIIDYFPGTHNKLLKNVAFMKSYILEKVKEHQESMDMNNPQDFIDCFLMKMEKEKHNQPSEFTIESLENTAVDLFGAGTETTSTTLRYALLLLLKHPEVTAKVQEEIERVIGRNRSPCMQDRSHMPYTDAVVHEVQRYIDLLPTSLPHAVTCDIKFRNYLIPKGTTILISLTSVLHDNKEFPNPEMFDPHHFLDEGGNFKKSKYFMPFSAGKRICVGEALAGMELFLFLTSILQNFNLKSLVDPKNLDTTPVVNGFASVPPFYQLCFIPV

Experiments:
[1] = target: Cytochrome P450 2D6 (Homo sapiens) (UniProt P10635); assay: Cytochrome P450 family 2 subfamily D member 6 (CYP2D6) small molecule antagonists: luciferase biochemical (cell-free) qHTS assay (AID 1645840; active = well fitted curve in the direction sought with a large enough effect in the repeat runs; an effect the other way counts as inactive or inconclusive; note: potency is the fitted concentration of half-maximal effect; nearly all actives have a fitted effect of over 55% in size)
Method in brief: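 P450-Glo CYP2D6 system: proluciferin substrate converted by enzyme to luciferin, read by luminescence proportional to activity. Enzyme-substrate mix with compound 10 min at room temperature, then NADPH regeneration 1 h before detection reagent.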

[2] = target: Cytochrome P450 3A4 (Homo sapiens) (UniProt P08684); assay: Cytochrome P450 family 3 subfamily A member 4 (CYP3A4) small molecule antagonists: luciferase qHTS assay (AID 1645841; active = well fitted curve in the direction sought with a large enough effect in the repeat runs; an effect the other way counts as inactive or inconclusive; note: potency is the fitted concentration of half-maximal effect; nearly all actives have a fitted effect of over 45% in size)
[3] = target: Cytochrome P450 2C9 (Homo sapiens) (UniProt P11712); assay: Cytochrome P450 family 2 subfamily C member 9 (CYP2C9) small molecule antagonists: luciferase qHTS assay (AID 1645842; active = well fitted curve in the direction sought with a large enough effect in the repeat runs; an effect the other way counts as inactive or inconclusive; note: % is set by controls: 0 for no effect and ±100 for the full control effect; nearly all actives have a fitted effect of over 55% in size); conditions: P450-Glo CYP2C9 enzyme assay, luciferin luminescence; at 57.4 µM (top of the series) unless noted
Method in brief: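 P450-Glo CYP2C9 system: proluciferin substrate with enzyme in mix containing 0.4% BSA, 10 min at room temperature, then NADPH regeneration solution added and incubated 1 h at 37C. Detection reagent stopped reaction; luminescence read after 20 min as RLU.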

[4] = Primary qHTS for inhibitors of nuclear receptor binding SET domain protein 2 (NSD2) in an isogenic RCH-ACV NSD2 p.E1099K mutant (9B) (AID 1645876); note: % is set by controls: 0 for no effect and ±100 for the full control effect; nearly all actives have a fitted effect of over 70% in size
[5] = Primary qHTS for inhibitors of nuclear receptor binding SET domain protein 2 (NSD2) in an RCH-ACV wild type WT cells (2C) (AID 1645877); note: % is set by controls: 0 for no effect and ±100 for the full control effect; nearly all actives have a fitted effect of over 70% in size
CRL-7250 = normal cell line; assay: Cytotoxic Profiling of Annotated Libraries Using Quantitative High-Throughput Screening (AID 1296008); conditions: Five cell lines viability, CellTiter-Glo ATP luminescence, 48-72 h; active compounds read low; note: nearly all actives have a fitted effect of over 60% in size; for max response: % is set by controls: 0 for no effect and ±100 for the full control effect
HEK293 = assay: as above; conditions: Five cell lines viability, CellTiter-Glo ATP luminescence, 48-72 h; max response: active compounds read low
HaCat = assay: as above; conditions: Five cell lines viability, CellTiter-Glo ATP luminescence, 48-72 h; active compounds read low
NIH3T3 [6] = assay: as above; conditions: Five cell lines viability, CellTiter-Glo ATP luminescence, 48-72 h; active compounds read low
MCC-13 = assay: qHTS assay to identify novel small-molecules to repurpose for Merkel cell carcinoma treatment (AID 1296009); conditions: MCC and control cell lines, CellTiter-Glo viability, 72 h; at 46 µM (top of the series) unless noted; note: nearly all actives have a fitted effect of over 60% in size; for activity change, negative = cytotoxicity: % is set by controls: 0 for no effect and ±100 for the full control effect
MCC-26 = assay: as above; conditions: MCC and control cell lines, CellTiter-Glo viability, 72 h; at 46 µM (top of the series) unless noted
MKL-1 = assay: as above; conditions: MCC and control cell lines, CellTiter-Glo viability, 72 h; at 46 µM (top of the series) unless noted
MKL-2 = assay: as above; conditions: MCC and control cell lines, CellTiter-Glo viability, 72 h; at 46 µM (top of the series) unless noted
NIH3T3 [7] = assay: as above; conditions: MCC and control cell lines, CellTiter-Glo viability, 72 h; at 44.8 µM (top of the series)
UISO = assay: as above; conditions: MCC and control cell lines, CellTiter-Glo viability, 72 h; at 46 µM (top of the series)
WaGa = assay: as above; conditions: MCC and control cell lines, CellTiter-Glo viability, 72 h; at 46 µM (top of the series) unless noted
C33A = assay: Primary qHTS to identify gynecologic anti-cancer compounds using libraries of approved drugs and bioactive compounds (AID 1345084); conditions: Gynecologic cancer cell panel viability, ATPlite luminescence, 48 h; at 57.5 µM (top of the series) unless noted; note: % is set by controls: 0 for no effect and ±100 for the full control effect; nearly all actives have a fitted effect of over 55% in size
Method in brief: (§1)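 Measured: luminescence after ATPlite addition (15 min, RT). Exposure: 48 h, 37 C, 5% CO2.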

CAOV3 = assay: as above; conditions: Gynecologic cancer cell panel viability, ATPlite luminescence, 48 h; at 57.5 µM (top of the series) unless noted
Method in brief: as §1

CASKI = assay: as above; conditions: Gynecologic cancer cell panel viability, ATPlite luminescence, 48 h; at 57.5 µM (top of the series) unless noted
Method in brief: as §1

Es-2 = assay: as above; conditions: Gynecologic cancer cell panel viability, ATPlite luminescence, 48 h; at 57.5 µM (top of the series) unless noted
Method in brief: as §1

HeLa = assay: as above; conditions: Gynecologic cancer cell panel viability, ATPlite luminescence, 48 h; at 57.5 µM (top of the series) unless noted
Method in brief: as §1

JEG-3 = assay: as above; conditions: Gynecologic cancer cell panel viability, ATPlite luminescence, 48 h; at 57.5 µM (top of the series) unless noted
Method in brief: as §1

OV90 = assay: as above; conditions: Gynecologic cancer cell panel viability, ATPlite luminescence, 48 h; at 57.5 µM (top of the series) unless noted
Method in brief: as §1

PA-1 = assay: as above; conditions: Gynecologic cancer cell panel viability, ATPlite luminescence, 48 h; at 57.5 µM (top of the series) unless noted
Method in brief: as §1

Tov-21-G = assay: as above; conditions: Gynecologic cancer cell panel viability, ATPlite luminescence, 48 h; at 57.5 µM (top of the series) unless noted
Method in brief: as §1

Tov112D = assay: as above; conditions: Gynecologic cancer cell panel viability, ATPlite luminescence, 48 h; at 57.5 µM (top of the series) unless noted
Method in brief: as §1

CN(C(=O)Cc1ccc(Cl)c(Cl)c1)[C@H]1CC[C@@]2(CCCO2)C[C@@H]1N1CCCC1
inactive: activity change, negative = inhibition [3] 4.37% | Potency [4] | Potency [5] | max response (CRL-7250) 1.91% | max response (HEK293) 1.41% | max response (HaCat) -1.16% | outcome (NIH3T3 [6]) | activity change, negative = cytotoxicity (MCC-13) 12.8% | activity change, negative = cytotoxicity (MCC-26) -3.68% | activity change, negative = cytotoxicity (MKL-1) -0.196% | activity change, negative = cytotoxicity (MKL-2) 10.6% | outcome (NIH3T3 [7]) | activity change, negative = cytotoxicity (UISO) 4.19% | activity change, negative = cytotoxicity (WaGa) 9.59% | activity change, negative = cytotoxicity (C33A) 6.13% | activity change, negative = cytotoxicity (CAOV3) -1.12% | activity change, negative = cytotoxicity (CASKI) 2.2% | activity change, negative = cytotoxicity (Es-2) 13.3% | activity change, negative = cytotoxicity (HeLa) 1.49% | activity change, negative = cytotoxicity (JEG-3) 2.38% | activity change, negative = cytotoxicity (OV90) 0.189% | activity change, negative = cytotoxicity (PA-1) 14.4% | activity change, negative = cytotoxicity (Tov-21-G) 0.251% | activity change, negative = cytotoxicity (Tov112D) 0.195%
active: Potency [1] 1100 nM | Potency [2] 3470 nM
